These results are taken from ChEMBL document CHEMBL4038316, “Enantioselective Synthesis and in Vivo Evaluation of Regioisomeric Analogues of the Antimalarial Arterolane” (J Med Chem, 2017).

Molecules are shown by their SMILES.

What all share (type): functional
Experiment [1] concerns Plasmodium berghei. Nature of the experiment: Antiplasmodial activity against Plasmodium berghei infected in Swiss Webster mouse assessed as cure rate at 6 mg/kg/day administered for 4 days via oral gavage starting at 1 hr post infection measured after 30 days relative to control.
The test system of experiment [2] is Plasmodium berghei. Nature of the experiment: Antiplasmodial activity against Plasmodium berghei infected in Swiss Webster mouse assessed as cure rate at 40 mg/kg/day administered for 1 day via oral gavage starting at 1 hr post infection measured after 30 days relative to control.
For experiment [3], the system named is Plasmodium berghei. The experiment is described as follows: Antiplasmodial activity against Plasmodium berghei infected in Swiss Webster mouse assessed as cure rate at 80 mg/kg/day administered for 1 day via oral gavage starting at 1 hr post infection measured after 30 days relative to control.

With `NC(=O)CNC(=O)C[C@@H]1CCC[C@]2(C1)OOC1(O2)C2CC3CC(C2)CC1C3` (some centres undefined), the Activity in experiment [1] is on record as 0%.

For the compound `O=C(C[C@@H]1CCC[C@]2(C1)OOC1(O2)C2CC3CC(C2)CC1C3)N1CCCCC1` (some centres undefined), the Activity in experiment [1] is reported as 0%. Turning to `c1cc([C@H]2CC[C@]3(CC2)OO[C@]2(O3)C3CC4CC(C3)CC2C4)ccc1OCCN1CCOCC1` [ARTEFENOMEL], the Activity in experiment [2] and in experiment [3] was 100% in each case.
